Biological target: T1, mouse MSR1 on RAW264.7 cells (mouse, UniProt P30204 1-458)
T1 construct: whole, on cells
T1 sequence (looked up): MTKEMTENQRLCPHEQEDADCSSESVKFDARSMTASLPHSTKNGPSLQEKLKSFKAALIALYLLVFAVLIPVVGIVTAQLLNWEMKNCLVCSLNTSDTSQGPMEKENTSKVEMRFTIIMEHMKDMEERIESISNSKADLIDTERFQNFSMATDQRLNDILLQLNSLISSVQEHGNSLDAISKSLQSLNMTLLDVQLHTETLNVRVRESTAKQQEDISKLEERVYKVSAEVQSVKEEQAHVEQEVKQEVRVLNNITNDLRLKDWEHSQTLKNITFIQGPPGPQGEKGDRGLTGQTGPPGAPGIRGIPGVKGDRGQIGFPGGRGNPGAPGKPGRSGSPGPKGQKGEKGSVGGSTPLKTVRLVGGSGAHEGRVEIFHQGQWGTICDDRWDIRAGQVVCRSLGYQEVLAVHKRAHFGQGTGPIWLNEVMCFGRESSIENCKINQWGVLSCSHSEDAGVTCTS
Experiment: flow cytometry, RAW264.7 cells, 10 ug/mL;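 further: antibodies bound to RAW264.7 cells for 30 min on ice after Fc block with mouse IgG, S/N is MFI relative to unstained cells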

MFI: 4060
B1: H1H27771P2-N297Q (antibody, human IgG1, V domains shown)
VH: EVQLVESGGGLVQPGGSLRLSCAASGFTFSSYGMNWVRQAPGKGLEWVSVISGSGGSTYYADSVKGRFTISRDNSKNTLYLQMNSLRAEDTAVYYCAKDRWTYYYDSSGSPFDYWGQGTLVTVSS
VL: not shown
notes: human IgG1 Fc with N297Q; also called H1H27771P-N297Q
